Columns and labels:
MINK = biological target: T1, MINK (Homo sapiens, UniProt Q8N4C8); experiment: Nanosyn kinase profiling; assay type: biochemical; conditions: read-out: Percentage inhibition
T1 construct: purchased Nanosyn (enzymatic panel); SGC in-house recombinant human kinases (DSF panel); Invitrogen (ALK1-6)
Procedure: (§1) Percentage inhibition was determined for each kinase at both 0.1 µM and 1 µM inhibitor concentration (supplemental Table S2). […]. […]. When visualized on a kinase phylogenetic tree, these were primarily clustered within the receptor tyrosine kinases (TKs) as well as the calmodulin-dependent kinases (CAMKs) (Figure 2C).
(§2) Inhibitor selectivity profiling against 200 human kinases at 0.1 and 1 µM inhibitor concentration was performed by Nanosyn (www.nanosyn.com).

Chains of the proteins cited; added tags and fusions are not shown. Lines headed by an entry give the natural chain unless they say otherwise; changes in a name come on top. Residues count along the entry.
UniProt Q8N4C8: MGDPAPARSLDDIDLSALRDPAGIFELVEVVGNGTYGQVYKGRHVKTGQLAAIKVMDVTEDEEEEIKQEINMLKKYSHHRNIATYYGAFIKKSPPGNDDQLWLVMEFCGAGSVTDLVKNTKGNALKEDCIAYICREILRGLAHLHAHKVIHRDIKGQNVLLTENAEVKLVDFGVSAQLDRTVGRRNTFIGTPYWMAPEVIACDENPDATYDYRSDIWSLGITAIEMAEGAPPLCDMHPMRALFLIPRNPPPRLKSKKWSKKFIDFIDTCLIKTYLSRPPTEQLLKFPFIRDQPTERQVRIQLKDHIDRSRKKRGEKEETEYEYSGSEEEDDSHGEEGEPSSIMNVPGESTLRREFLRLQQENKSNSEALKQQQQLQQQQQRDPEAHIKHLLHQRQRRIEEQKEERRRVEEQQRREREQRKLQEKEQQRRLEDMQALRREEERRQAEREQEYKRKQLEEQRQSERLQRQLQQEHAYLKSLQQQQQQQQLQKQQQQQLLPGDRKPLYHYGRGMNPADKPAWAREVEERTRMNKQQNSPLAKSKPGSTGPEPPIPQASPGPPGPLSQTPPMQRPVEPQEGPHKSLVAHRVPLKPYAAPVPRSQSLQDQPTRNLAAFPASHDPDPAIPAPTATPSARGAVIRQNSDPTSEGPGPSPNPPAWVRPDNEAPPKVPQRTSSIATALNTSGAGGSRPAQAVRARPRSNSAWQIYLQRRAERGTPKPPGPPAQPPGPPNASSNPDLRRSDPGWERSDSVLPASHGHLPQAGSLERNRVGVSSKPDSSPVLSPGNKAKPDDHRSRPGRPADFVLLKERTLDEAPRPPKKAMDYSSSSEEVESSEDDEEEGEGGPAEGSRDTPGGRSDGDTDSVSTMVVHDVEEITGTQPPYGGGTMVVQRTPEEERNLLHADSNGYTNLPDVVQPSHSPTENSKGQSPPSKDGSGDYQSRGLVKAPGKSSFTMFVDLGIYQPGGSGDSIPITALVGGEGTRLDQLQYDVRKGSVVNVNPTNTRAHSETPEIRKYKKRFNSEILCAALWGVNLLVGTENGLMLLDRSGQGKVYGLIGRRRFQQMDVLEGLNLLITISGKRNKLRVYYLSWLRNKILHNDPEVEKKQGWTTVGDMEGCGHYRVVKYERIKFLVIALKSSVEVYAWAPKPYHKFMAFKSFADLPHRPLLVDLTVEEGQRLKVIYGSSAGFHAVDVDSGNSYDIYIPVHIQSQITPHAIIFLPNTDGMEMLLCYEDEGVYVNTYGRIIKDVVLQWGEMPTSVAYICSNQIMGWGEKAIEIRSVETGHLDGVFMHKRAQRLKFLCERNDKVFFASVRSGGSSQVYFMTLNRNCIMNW
UniProt P07333, 20-972: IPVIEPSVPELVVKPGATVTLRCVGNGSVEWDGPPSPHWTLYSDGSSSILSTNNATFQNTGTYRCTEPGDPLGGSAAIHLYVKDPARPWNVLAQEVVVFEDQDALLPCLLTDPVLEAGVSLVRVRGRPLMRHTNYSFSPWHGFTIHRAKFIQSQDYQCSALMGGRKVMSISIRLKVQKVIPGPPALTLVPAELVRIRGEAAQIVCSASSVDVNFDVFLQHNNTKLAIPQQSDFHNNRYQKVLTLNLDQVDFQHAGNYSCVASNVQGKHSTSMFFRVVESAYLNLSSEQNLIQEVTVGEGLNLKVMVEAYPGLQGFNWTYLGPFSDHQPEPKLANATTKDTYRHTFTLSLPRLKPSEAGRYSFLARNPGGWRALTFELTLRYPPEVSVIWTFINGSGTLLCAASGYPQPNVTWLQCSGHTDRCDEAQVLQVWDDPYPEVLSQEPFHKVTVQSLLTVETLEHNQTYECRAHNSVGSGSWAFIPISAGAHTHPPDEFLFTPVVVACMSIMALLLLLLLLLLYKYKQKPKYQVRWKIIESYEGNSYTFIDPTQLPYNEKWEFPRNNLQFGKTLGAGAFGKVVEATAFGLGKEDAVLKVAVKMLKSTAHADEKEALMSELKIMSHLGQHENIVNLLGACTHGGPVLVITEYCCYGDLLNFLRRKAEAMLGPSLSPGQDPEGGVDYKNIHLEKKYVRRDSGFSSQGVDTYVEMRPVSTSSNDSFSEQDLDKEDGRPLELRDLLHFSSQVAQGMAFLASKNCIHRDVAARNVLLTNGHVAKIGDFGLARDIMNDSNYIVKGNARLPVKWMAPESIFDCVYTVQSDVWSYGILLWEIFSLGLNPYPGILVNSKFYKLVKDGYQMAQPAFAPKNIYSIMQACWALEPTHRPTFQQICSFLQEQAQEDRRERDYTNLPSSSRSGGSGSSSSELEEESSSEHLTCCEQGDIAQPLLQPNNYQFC
UniProt P15056, whole entry: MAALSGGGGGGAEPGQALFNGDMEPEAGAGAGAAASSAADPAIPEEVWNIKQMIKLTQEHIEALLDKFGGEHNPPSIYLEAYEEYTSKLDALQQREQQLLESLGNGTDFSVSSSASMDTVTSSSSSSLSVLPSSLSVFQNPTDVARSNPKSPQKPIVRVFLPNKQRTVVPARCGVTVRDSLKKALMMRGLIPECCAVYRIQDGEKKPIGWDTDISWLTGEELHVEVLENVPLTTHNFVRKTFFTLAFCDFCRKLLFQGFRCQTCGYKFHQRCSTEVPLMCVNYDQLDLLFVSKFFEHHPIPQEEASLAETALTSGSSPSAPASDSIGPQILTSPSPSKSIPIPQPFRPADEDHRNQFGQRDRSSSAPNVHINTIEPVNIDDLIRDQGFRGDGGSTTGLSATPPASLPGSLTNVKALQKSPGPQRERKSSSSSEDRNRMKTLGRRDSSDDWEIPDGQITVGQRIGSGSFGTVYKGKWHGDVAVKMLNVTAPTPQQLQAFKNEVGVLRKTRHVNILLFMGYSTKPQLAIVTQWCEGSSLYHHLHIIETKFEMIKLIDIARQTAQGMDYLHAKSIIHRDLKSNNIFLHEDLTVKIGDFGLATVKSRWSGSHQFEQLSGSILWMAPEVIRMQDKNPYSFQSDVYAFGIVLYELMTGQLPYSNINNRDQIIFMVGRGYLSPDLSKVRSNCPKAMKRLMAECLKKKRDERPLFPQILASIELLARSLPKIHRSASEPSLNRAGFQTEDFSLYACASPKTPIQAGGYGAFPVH
UniProt P36888, 27-993: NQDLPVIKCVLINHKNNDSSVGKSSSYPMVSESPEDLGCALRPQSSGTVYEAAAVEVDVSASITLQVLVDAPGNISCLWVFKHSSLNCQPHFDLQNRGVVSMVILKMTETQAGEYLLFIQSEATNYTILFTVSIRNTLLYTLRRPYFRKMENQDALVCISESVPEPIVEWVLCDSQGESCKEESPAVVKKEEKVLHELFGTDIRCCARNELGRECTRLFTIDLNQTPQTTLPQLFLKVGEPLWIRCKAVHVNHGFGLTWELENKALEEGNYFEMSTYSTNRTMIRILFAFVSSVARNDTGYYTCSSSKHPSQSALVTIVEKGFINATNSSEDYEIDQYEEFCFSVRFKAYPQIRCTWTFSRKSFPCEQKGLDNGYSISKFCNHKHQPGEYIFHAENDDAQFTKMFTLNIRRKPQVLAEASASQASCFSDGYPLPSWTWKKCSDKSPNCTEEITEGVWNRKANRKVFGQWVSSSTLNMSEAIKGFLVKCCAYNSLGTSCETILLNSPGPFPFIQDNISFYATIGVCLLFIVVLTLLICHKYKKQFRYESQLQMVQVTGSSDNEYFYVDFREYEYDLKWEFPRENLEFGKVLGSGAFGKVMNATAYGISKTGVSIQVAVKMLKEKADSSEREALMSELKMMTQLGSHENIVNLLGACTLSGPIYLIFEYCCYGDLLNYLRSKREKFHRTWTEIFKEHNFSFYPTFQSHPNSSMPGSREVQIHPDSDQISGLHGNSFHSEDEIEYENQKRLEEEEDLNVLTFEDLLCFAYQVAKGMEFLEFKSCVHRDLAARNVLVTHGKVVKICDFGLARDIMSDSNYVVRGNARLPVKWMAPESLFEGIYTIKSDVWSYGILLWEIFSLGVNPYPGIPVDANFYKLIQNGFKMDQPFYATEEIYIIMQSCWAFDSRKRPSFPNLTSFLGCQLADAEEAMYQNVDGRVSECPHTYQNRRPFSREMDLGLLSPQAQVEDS
UniProt Q9BYT3: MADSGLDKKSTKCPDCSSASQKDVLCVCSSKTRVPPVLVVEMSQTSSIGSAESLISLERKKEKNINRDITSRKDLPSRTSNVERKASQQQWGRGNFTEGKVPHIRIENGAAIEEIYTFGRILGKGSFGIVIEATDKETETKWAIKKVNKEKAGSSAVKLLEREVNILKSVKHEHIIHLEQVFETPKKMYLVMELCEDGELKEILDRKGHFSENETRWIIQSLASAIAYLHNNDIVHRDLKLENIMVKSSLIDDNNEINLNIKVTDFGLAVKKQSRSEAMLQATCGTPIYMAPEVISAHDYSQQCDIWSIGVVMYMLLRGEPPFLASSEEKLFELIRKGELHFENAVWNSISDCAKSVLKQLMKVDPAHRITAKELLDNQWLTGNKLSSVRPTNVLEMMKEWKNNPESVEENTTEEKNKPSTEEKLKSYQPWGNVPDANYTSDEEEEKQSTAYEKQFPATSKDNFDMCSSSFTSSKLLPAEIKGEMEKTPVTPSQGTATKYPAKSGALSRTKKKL
UniProt Q04771: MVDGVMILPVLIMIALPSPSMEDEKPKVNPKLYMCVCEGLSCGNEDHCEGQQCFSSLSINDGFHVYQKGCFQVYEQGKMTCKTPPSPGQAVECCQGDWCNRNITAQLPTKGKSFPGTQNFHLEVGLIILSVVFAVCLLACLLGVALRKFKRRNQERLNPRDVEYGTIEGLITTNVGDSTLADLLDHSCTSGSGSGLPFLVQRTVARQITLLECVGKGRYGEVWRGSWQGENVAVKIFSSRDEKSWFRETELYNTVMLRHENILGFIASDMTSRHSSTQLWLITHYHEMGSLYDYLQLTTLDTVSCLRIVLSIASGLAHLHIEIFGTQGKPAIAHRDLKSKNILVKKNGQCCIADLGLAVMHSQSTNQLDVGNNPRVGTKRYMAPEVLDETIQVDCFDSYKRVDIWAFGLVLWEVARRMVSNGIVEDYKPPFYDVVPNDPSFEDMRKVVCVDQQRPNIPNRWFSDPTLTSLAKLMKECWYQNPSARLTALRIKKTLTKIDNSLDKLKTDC
UniProt Q9UKE5: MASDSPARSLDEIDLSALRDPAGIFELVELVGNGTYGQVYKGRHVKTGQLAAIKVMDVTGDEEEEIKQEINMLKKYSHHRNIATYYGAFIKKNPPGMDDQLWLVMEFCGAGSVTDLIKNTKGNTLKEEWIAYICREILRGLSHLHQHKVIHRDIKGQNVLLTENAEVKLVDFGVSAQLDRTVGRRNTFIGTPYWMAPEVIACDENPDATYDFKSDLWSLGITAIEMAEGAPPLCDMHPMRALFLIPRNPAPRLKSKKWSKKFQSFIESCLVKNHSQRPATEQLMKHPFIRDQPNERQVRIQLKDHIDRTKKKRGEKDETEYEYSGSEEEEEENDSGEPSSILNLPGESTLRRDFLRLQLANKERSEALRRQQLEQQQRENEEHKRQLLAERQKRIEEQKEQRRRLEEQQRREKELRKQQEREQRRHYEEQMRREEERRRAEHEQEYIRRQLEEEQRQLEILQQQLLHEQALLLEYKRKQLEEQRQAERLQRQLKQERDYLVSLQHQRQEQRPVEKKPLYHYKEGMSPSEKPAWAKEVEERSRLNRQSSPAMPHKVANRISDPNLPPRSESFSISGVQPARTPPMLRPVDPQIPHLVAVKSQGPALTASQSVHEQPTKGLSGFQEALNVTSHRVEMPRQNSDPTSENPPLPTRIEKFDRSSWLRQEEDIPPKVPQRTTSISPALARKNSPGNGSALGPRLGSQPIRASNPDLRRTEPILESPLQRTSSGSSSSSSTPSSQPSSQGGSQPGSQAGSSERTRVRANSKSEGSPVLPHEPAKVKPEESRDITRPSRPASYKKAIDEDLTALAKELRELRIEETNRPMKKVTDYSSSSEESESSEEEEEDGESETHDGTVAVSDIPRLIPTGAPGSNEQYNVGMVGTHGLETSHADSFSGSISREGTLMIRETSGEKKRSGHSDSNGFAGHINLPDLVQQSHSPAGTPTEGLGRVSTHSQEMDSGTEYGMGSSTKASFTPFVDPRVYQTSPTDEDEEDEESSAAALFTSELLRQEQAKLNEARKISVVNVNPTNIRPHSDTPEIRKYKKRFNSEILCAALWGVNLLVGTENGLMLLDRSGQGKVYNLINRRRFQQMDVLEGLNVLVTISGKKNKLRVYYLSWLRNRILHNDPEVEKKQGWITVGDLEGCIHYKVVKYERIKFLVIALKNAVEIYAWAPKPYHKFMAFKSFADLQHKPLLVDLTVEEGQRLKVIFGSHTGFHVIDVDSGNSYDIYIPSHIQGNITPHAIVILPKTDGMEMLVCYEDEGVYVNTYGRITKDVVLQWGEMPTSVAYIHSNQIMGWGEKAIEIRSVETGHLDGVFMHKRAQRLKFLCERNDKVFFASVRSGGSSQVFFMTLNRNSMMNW

MAP4K4 = biological target: T2, MAP4K4 (Homo sapiens, UniProt O95819); experiment: Nanosyn kinase profiling; assay type: biochemical; conditions: read-out: Percentage inhibition
T2 construct: purchased Nanosyn (enzymatic panel); SGC in-house recombinant human kinases (DSF panel); Invitrogen (ALK1-6)
Procedure: as §1, §2

FMS = biological target: T3, FMS (Homo sapiens, UniProt P07333); experiment: Nanosyn kinase profiling; assay type: biochemical; conditions: read-out: Percentage inhibition
T3 construct: purchased Nanosyn (enzymatic panel); SGC in-house recombinant human kinases (DSF panel); Invitrogen (ALK1-6)
Procedure: as §1, §2

BRAF = biological target: T4, BRAF (Homo sapiens, UniProt P15056); experiment: Nanosyn kinase profiling; assay type: biochemical; conditions: read-out: Percentage inhibition
T4 construct: purchased Nanosyn (enzymatic panel); SGC in-house recombinant human kinases (DSF panel); Invitrogen (ALK1-6)
Procedure: as §1, §2

FLT3 = biological target: T5, FLT3 (Homo sapiens, UniProt P36888); experiment: Nanosyn kinase profiling; assay type: biochemical; conditions: read-out: Percentage inhibition
T5 construct: purchased Nanosyn (enzymatic panel); SGC in-house recombinant human kinases (DSF panel); Invitrogen (ALK1-6)
Procedure: as §1, §2

ALK5 = biological target: T6, ALK5 (Homo sapiens, UniProt P36897); experiment: DSF thermal shift; assay type: binding; conditions: 10 µM inhibitor; read-out: Tm shift
T6 construct: purchased Nanosyn (enzymatic panel); SGC in-house recombinant human kinases (DSF panel); Invitrogen (ALK1-6)
T6 sequence (P36897 34-503): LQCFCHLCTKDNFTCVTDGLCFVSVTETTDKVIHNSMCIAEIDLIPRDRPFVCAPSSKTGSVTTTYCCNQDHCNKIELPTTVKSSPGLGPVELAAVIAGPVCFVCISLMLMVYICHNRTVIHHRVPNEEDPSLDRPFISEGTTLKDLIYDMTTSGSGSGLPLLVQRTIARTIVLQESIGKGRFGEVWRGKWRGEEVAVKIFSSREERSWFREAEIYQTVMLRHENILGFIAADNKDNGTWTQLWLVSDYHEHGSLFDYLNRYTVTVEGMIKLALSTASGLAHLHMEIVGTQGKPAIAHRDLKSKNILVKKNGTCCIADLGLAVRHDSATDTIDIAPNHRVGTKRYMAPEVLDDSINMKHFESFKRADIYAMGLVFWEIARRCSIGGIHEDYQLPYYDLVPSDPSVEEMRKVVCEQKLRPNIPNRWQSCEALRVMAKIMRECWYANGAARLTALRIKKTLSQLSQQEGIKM
Procedure: (§3) Thermal melting experiments were performed using a Real Time PCR machine Mx3005p (Stratagene) with a protein concentration of 1–2 µM and 10 µM inhibitor as described previously, [25]. […] Recombinant human kinases for DSF screening were prepared by SGC using published methods, [36].

ZAK = biological target: T7, ZAK (Homo sapiens, UniProt Q9NYL2); experiment: DSF thermal shift; assay type: binding; conditions: read-out: Tm shift
T7 construct: purchased Nanosyn (enzymatic panel); SGC in-house recombinant human kinases (DSF panel); Invitrogen (ALK1-6)
Procedure: as §3

STK33 = biological target: T8, STK33 (Homo sapiens, UniProt Q9BYT3); experiment: DSF thermal shift; assay type: binding; conditions: 10 µM inhibitor; read-out: Tm shift
T8 construct: purchased Nanosyn (enzymatic panel); SGC in-house recombinant human kinases (DSF panel); Invitrogen (ALK1-6)
Procedure: as §3

ALK2 = biological target: T9, ALK2 (Homo sapiens, UniProt Q04771, Q207D); experiment: DSF thermal shift; assay type: binding; conditions: 10 µM inhibitor; kinase domain 201–499 Q207D; read-out: Tm shift
T9 construct: purchased Nanosyn (enzymatic panel); SGC in-house recombinant human kinases (DSF panel); Invitrogen (ALK1-6)
T9 sequence (Q04771 201-499 Q207D): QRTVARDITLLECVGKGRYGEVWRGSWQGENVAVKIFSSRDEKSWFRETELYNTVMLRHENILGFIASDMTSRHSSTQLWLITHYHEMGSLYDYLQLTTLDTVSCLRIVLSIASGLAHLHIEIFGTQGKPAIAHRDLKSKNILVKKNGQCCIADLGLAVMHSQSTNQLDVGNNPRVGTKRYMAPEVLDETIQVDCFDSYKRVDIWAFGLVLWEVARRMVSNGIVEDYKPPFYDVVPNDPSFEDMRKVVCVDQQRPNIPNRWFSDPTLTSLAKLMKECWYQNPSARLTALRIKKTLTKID
Procedure: as §3

BMPRII = biological target: T10, BMPRII (Homo sapiens, UniProt Q13873); experiment: DSF thermal shift; assay type: binding; conditions: read-out: Tm shift
T10 construct: purchased Nanosyn (enzymatic panel); SGC in-house recombinant human kinases (DSF panel); Invitrogen (ALK1-6)
T10 sequence (Q13873 27-1038): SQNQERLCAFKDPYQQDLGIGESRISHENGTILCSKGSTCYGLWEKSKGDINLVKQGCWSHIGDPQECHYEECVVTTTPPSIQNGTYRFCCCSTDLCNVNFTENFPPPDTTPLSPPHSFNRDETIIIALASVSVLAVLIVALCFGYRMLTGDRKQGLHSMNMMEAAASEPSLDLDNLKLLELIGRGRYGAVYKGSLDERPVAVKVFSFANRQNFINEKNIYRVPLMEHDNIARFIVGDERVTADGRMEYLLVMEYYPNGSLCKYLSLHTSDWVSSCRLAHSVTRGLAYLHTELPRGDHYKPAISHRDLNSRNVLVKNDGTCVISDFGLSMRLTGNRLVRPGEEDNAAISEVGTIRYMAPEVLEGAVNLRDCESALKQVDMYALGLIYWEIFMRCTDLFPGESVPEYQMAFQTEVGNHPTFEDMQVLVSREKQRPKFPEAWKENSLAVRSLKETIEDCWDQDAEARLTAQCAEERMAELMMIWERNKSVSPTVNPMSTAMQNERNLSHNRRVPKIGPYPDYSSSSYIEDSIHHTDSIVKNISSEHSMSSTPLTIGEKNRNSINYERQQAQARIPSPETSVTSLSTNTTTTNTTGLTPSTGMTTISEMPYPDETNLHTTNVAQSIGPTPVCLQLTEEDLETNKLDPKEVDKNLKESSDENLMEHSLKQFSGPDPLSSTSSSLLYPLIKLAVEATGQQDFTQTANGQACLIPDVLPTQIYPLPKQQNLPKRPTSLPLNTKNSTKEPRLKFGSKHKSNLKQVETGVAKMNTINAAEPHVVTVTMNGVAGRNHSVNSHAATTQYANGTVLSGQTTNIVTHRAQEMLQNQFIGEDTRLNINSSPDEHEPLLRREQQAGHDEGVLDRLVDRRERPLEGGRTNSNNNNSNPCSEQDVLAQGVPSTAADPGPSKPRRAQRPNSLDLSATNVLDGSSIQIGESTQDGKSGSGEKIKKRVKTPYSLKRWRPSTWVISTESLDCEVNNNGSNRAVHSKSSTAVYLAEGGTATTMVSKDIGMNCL
Procedure: as §3

TNIK = biological target: T11, TNIK (Homo sapiens, UniProt Q9UKE5); experiment: DSF thermal shift; assay type: binding; conditions: read-out: Tm shift
T11 construct: purchased Nanosyn (enzymatic panel); SGC in-house recombinant human kinases (DSF panel); Invitrogen (ALK1-6)
Procedure: as §3

## c1ccc2c(-c3cnn4cc(-c5ccc(N6CCNCC6)cc5)cnc34)ccnc2c1 [LDN-193189]
MINK
  inhibition at 0.1 µM: 26%
  inhibition at 1 µM: 71%
MAP4K4
  inhibition at 0.1 µM: 31%
  inhibition at 1 µM: 81%
FMS
  inhibition at 0.1 µM: 3.7%
  inhibition at 1 µM: 26%
BRAF
  inhibition at 0.1 µM: 3.5%
  inhibition at 1 µM: 5.2%
FLT3
  inhibition at 0.1 µM: 3.4%
  inhibition at 1 µM: 12%
ALK5
  ΔTm at 10 µM: 12 °C
ZAK
  ΔTm at 10 µM: 2.7 °C
STK33
  ΔTm at 10 µM: 6.5 °C
ALK2
  ΔTm at 10 µM: 14.3 °C
BMPRII
  ΔTm at 10 µM: -0.4 °C
TNIK
  ΔTm at 10 µM: 4.6 °C

— article PMC3639963, “A New Class of Small Molecule Inhibitor of BMP Signaling” (PLoS ONE, 2013)
